Source: patent US9205085B2, “Tricyclic amino containing compounds for treatment or prevention of symptoms associated with endocrine dysfunction” (Emory University, priority 2011, dated 2015)

The chains behind the UniProt entries cited, without tags or fusion partners.
UniProt P61073, whole entry: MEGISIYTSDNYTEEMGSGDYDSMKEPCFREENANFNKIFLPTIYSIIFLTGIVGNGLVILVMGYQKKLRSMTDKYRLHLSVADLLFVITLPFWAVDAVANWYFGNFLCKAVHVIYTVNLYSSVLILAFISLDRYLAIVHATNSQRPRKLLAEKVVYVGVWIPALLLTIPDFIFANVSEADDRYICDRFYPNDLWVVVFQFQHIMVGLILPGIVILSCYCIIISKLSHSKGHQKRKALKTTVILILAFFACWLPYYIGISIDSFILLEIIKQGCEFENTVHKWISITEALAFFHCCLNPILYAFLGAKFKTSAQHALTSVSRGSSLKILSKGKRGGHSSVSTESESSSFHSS

Biological target: SDF-1/CXCR4 (Homo sapiens (Human), UniProt P61073)
Assay: IC50 vs SDF-1 (table of specific compounds)
Assay type: binding

SMILES	IC50
COc1cccc(NCc2ccc(CO)cc2)c1 [MSX-204]	1000 nM
c1ccc(OCc2ccc(COc3ccccc3)cc2)cc1 [MSX-210]	1000 nM
Fc1nc(F)nc(NCc2ccc(CNc3nc(F)nc(F)n3)cc2)n1 [MSX-191]	100 nM
CCc1ccc(NCc2ccc(CNc3ccc(CC)cc3)cc2)cc1 [MSX-140]	10 nM
